Source: patent publication US9403839B2, “Pyran-spirocyclic piperidine amides as modulators of ion channels” (Vertex Pharmaceuticals Incorporated, priority 2012, dated 2016)

Sequences of proteins named here, by UniProt entry; tags and fusion partners are left off.
UniProt Q15858, whole entry: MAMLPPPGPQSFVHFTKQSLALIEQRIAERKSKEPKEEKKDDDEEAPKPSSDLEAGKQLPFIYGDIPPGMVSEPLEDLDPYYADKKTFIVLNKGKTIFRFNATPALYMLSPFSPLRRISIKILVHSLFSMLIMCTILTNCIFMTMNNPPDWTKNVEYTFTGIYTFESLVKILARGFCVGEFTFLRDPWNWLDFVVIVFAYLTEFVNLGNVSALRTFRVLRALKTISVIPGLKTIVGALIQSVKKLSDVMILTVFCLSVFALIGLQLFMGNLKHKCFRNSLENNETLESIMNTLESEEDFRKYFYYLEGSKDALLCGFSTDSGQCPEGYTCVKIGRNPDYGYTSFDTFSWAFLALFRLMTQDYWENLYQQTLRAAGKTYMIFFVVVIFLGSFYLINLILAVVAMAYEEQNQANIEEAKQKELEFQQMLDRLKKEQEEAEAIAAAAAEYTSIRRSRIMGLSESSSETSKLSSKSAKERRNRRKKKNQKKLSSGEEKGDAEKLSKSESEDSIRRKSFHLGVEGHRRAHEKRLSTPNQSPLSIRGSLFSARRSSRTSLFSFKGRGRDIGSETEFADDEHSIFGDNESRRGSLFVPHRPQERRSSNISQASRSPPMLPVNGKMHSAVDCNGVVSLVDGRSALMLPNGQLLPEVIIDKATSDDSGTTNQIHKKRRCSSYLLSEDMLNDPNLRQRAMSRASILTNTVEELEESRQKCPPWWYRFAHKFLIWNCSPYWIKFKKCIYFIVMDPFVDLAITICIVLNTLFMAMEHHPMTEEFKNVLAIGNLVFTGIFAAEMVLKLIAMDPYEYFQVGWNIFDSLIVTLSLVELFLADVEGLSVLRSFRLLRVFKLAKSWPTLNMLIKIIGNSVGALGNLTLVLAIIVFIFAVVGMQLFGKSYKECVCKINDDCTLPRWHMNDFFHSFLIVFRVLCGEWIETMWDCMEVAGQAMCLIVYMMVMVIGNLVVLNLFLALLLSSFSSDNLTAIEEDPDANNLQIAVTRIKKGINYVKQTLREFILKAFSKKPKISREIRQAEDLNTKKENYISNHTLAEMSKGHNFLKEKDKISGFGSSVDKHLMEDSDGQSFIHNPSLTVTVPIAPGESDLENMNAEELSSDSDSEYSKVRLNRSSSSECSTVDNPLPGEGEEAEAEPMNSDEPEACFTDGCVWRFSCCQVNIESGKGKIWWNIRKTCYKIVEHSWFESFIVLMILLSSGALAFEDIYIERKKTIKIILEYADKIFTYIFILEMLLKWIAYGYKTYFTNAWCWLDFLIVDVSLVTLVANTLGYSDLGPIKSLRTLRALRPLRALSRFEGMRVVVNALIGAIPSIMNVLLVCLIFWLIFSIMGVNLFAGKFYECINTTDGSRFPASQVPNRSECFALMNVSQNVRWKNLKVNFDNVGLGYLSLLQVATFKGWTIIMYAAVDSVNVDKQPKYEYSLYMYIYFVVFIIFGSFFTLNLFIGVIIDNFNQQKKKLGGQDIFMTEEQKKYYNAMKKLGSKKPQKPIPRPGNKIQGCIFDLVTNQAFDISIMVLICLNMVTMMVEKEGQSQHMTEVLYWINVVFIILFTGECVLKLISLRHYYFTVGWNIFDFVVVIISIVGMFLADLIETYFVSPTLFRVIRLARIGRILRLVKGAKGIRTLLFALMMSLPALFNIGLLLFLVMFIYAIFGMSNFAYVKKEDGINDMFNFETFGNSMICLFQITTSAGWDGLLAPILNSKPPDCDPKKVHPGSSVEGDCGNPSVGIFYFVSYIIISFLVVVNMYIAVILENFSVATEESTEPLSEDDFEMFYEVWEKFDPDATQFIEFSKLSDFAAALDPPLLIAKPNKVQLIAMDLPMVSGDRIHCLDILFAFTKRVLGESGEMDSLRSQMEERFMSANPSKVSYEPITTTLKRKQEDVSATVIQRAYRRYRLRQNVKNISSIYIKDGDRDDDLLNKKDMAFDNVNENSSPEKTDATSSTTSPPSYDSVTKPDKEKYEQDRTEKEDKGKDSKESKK

Biological target: human NaV subtype, like NaV 1.7 (Homo sapiens, UniProt Q15858)
Assay: E-VIPR optical membrane potential assay with electrical stimulation
Details: read-out: IC50 Binned Activity Data; one or more sodium channels; assay and NaV subtype not specified for Table 3
Text: Assays for Detecting and Measuring NaV Inhibition Properties of Compound E-VIPR Optical Membrane Potential Assay Method with Electrical Stimulation
Sodium channels are voltage-dependent proteins that can be activated by inducing membrane voltage changes by applying electric fields. The electrical stimulation instrument and methods of use are described in Ion Channel Assay Methods PCT/US01/21652, herein incorporated by reference and are referred to as E-VIPR. The instrument comprises a microtiter plate handler, an optical system for exciting the coumarin dye while simultaneously recording the coumarin and oxonol emissions, a waveform generator, a current- or voltage-controlled amplifier, and a device for inserting electrodes in well. Under integrated computer control, this instrument passes user-programmed electrical stimulus protocols to cells within the wells of the microtiter plate.
24 hours before the assay on E-VIPR, HEK cells expressing human NaV subtype, like NaV 1.7, are seeded in 384-well poly-lysine coated plates at 15,000-20,000 cells per well. Other subtypes are performed in an analogous mode in a cell line expressing the NaV of interest. HEK cells are grown in media (exact composition is specific to each cell type and NaV subtype) supplemented with 10% FBS (Fetal Bovine Serum, qualified; GibcoBRL #16140-071) and 1% Pen-Strep (Penicillin-Streptomycin; GibcoBRL #15140-122). Cells are grown in vented cap flasks, in 90% humidity and 10% CO2, to 100% confluence. They are usually split by trypsinization 1:10 or 1:20, depending on scheduling needs, and grown for 2-3 days before the next split.
100 mg/mL Pluronic F-127 (Sigma #P2443), in dry DMSO
Compound Plates: 384-well round bottom plate, e.g. Corning 384-well Polypropylene Round Bottom #3656
Cell Plates: 384-well tissue culture treated plate, e.g. Greiner #781091-1B
Bath1 buffer. Glucose 10 mM (1.8 g/L), Magnesium Chloride (Anhydrous), 1 mM (0.095 g/L), Calcium Chloride, 2 mM (0.222 g/L), HEPES 10 mM (2.38 g/L), Potassium Chloride, 4.5 mM (0.335 g/L), Sodium Chloride 160 mM (9.35 g/L).
Hexyl Dye Solution: Bath1 Buffer+0.5% β-cyclodextrin (make this prior to use, Sigma #C4767), 8 μM CC2-DMPE+2.5 μM DiSBAC6(3). To make the solution Add volume of 10% Pluronic F127 stock equal to volumes of CC2-DMPE+DiSBAC6(3). The order of preparation is first mix Pluronic and CC2-DMPE, then add DiSBAC6(3) while vortexing, then add Bath1+β-Cyclodextrin.
1) Pre-spot compounds (in neat DMSO) into compound plates. Vehicle control (neat DMSO), the positive control (20 mM DMSO stock tetracaine, 125 μM final in assay) and test compounds are added to each well at 160× desired final concentration in neat DMSO. Final compound plate volume will be 80 μL (80-fold intermediate dilution from 1 μL DMSO spot; 160-fold final dilution after transfer to cell plate). Final DMSO concentration for all wells in assay is 0.625%.
2) Prepare Hexyl Dye Solution.
3) Prepare cell plates. On the day of the assay, medium is aspirated and cells are washed three times with 100 μL of Bath1 Solution, maintaining 25 μL residual volume in each well.
4) Dispense 25 μL per well of Hexyl Dye Solution into cell plates. Incubate for 20-35 minutes at room temp or ambient conditions.
5) Dispense 80 μL per well of Bath1 into compound plates. Acid Yellow-17 (1 mM) is added and Potassium Chloride can be altered from 4.5 to 20 mM depending on the NaV subtype and assay sensitivity.
6) Wash cell plates three times with 100 μL per well of Bath1, leaving 25 of residual volume. Then transfer 25 uL per well from Compound Plates to Cell Plates. Incubate for 20-35 minutes at room temp/ambient condition
7) Read Plate on E-VIPR. Use the current-controlled amplifier to deliver stimulation wave pulses for typically 9 seconds and a scan rate of 400 Hz. A pre-stimulus recording is performed for 0.5 seconds to obtain the un-stimulated intensities baseline. […]

SMILES | IC50 [nM]
CCOC1CC(c2ccccc2)OC2(CCN(C(=O)c3ccnc(N4CCCCC4)c3)CC2)C1 (stereo not drawn) | < 2000
CCOC1CC(c2ccccc2)OC2(CCN(C(=O)c3cc(C)c(OC)c(C)c3)CC2)C1 (stereo not drawn) | < 2000
CCOC1CC(c2ccccc2)OC2(CCN(C(=O)c3ccc(S(=O)(=O)C(C)C)cc3)CC2)C1 (stereo not drawn) | 2000 to 5000
CCOC1CC(c2cccnc2)OC2(CCN(C(=O)c3ccc(OC(C)C)c(C)c3)CC2)C1 (single isomer, unassigned) [147] | > 5000
CCOC1CC(c2ccccc2)OC2(CCN(C(=O)c3ccc(OCC(C)(C)F)c(OC)c3)CC2)C1 (stereo not drawn) | < 2000
CCOC1CC(c2ccccc2)OC2(CCN(C(=O)c3ccc(S(=O)(=O)NC)cc3)CC2)C1 (stereo not drawn) | 2000 to 5000
CCOC1CC(c2ccccc2)OC2(CCN(C(=O)c3ccc(OC(C)C)c(C)n3)CC2)C1 (stereo not drawn) | < 2000
CCOC1CC(c2ccccc2)OC2(CCN(C(=O)c3cnn(-c4ccc(F)cc4)c3C)CC2)C1 (stereo not drawn) | < 2000
CCOC1CC(c2ccccc2)OC2(CCN(C(=O)c3ccc(COCCC(F)(F)F)cc3)CC2)C1 (stereo not drawn) | < 2000
CCOC1CC(c2ccccc2)OC2(CCN(C(=O)c3ccnc(N(C)C)c3)CC2)C1 (stereo not drawn) | 2000 to 5000
CCOC1CC(c2ccccc2)OC2(CCN(C(=O)c3ccc(OC)c(Cl)c3)CC2)C1 (stereo not drawn) | < 2000
CCOC1CC(c2cccnc2)OC2(CCN(C(=O)c3ccc(OC(C)C)c(F)c3)CC2)C1 (stereo not drawn) | 2000 to 5000
CCNc1ncccc1C(=O)N1CCC2(CC1)CC(OCC)CC(c1ccccc1)O2 (stereo not drawn) | 2000 to 5000
CCOC1CC(c2ccccc2)OC2(CCN(C(=O)c3ccc(S(=O)(=O)C(C)C)c(C)c3)CC2)C1 (stereo not drawn) | < 2000
CCOC1CC(c2cccnc2)OC2(CCN(C(=O)c3cnc(OC(C)C)c(C)c3)CC2)C1 (stereo not drawn) | > 5000
CCOC1CC(c2ccccc2)OC2(CCN(C(=O)c3cccc4c3OCC4)CC2)C1 (stereo not drawn) | < 2000
CCOC1CC(c2ccccn2)OC2(CCN(C(=O)c3cccc(F)c3OC)CC2)C1 (stereo not drawn) | > 5000
CCOC1CC(c2ccccc2)OC2(CCN(C(=O)c3ccc(OC)c(C)c3)CC2)C1 (stereo not drawn) | < 2000
CCOC1CC(c2ccccc2)OC2(CCN(C(=O)c3cccc(F)c3OC)CC2)C1 (stereo not drawn) | < 2000
CCOC1CC(c2ccccc2)OC2(CCN(C(=O)c3cccnc3OC)CC2)C1 (stereo not drawn) | 2000 to 5000
CCOC1CC(c2ccccc2)OC2(CCN(C(=O)c3ccc(COCCC(F)(F)F)c(OC)c3)CC2)C1 (stereo not drawn) | < 2000
CCOC1CC(c2cccnc2)OC2(CCN(C(=O)c3ccc(OC(C)C)c(OC)n3)CC2)C1 (stereo not drawn) | 2000 to 5000

SMILES | IC50 [nM]
CCOc1c(C)cccc1C(=O)N1CCC2(CC1)CC(OCC)CC(c1ccccc1)O2 (stereo not drawn) | < 2000
CCOC1CC(c2ccccc2)OC2(CCN(C(=O)c3ccc4ncccc4c3)CC2)C1 (stereo not drawn) | > 5000
COC1CC(c2cccnc2)OC2(CCN(C(=O)c3ccc(OC(C)C)c(C)n3)CC2)C1 (stereo not drawn) | > 5000
CCOC1CC(c2ccccc2)OC2(CCN(C(=O)c3ccc(OCC(C)(C)O)cc3)CC2)C1 (stereo not drawn) | < 2000
CCOC1CC(c2ccccc2)OC2(CCN(C(=O)c3ccc(S(=O)(=O)C(F)F)cc3)CC2)C1 (stereo not drawn) | < 2000
CCOC1CC(c2ccccc2)OC2(CCN(C(=O)c3cn4cc(C)ccc4n3)CC2)C1 (stereo not drawn) | 2000 to 5000
CCOC1CC(c2ccc(F)cc2)OC2(CCN(C(=O)c3ccc(S(=O)(=O)C(F)F)cc3)CC2)C1 (stereo not drawn) | 2000 to 5000
CCOc1ccc(C(=O)N2CCC3(CC2)CC(OCC)CC(c2ccc(F)cc2)O3)cc1OC (stereo not drawn) | < 2000
CCOC1CC(c2ccccc2)OC2(CCN(C(=O)c3ccc(C(O)C(C)C)cc3)CC2)C1 (stereo not drawn) | < 2000
Cc1cc(C(=O)N2CCC3(CC2)CC(OC(C)C)CC(c2ccccc2)O3)ccc1OC(C)C (stereo not drawn) | < 2000
CCOC1CC(c2ccccc2)OC2(CCN(C(=O)c3cc(-c4ccccc4)n(C)n3)CC2)C1 (stereo not drawn) | < 2000
CCOC1CC(c2ccccc2)OC2(CCN(C(=O)c3cn4cc(Cl)ccc4n3)CC2)C1 (stereo not drawn) | 2000 to 5000
CCOC1CC(c2ccccc2)OC2(CCN(C(=O)c3ccc(OC(C)C)c(OC)c3)CC2)C1 (stereo not drawn) | > 5000
CCOC1CC(c2ccccn2)OC2(CCN(C(=O)c3ccc(S(=O)(=O)C(F)F)cc3)CC2)C1 (stereo not drawn) | 2000 to 5000
CCOC1CC(c2ccccc2)OC2(CCN(C(=O)c3cc(OC)c4ccccc4n3)CC2)C1 (stereo not drawn) | < 2000
CCOC1CC(c2ccccc2)OC2(CCN(C(=O)c3ccc(CN4CCOCC4)cc3)CC2)C1 (stereo not drawn) | 2000 to 5000
CCOC1CC(c2ccccc2)OC2(CCN(C(=O)c3ccccc3N3CCOCC3)CC2)C1 (stereo not drawn) | > 5000
CCOC1CC(c2ccnn2C)OC2(CCN(C(=O)c3ccc(OC(C)C)c(C)c3)CC2)C1 (stereo not drawn) | 2000 to 5000
CCOC1CC(c2ccc(F)cc2)OC2(CCN(C(=O)c3ccc(OC(C)C)c(F)c3)CC2)C1 (stereo not drawn) | < 2000
CCOC1CC(c2ccccc2)OC2(CCN(C(=O)c3ccc(CC)c(OC)c3)CC2)C1 (stereo not drawn) | < 2000
CCOC1CC(c2cccnc2)OC2(CCN(C(=O)c3ccc(COCC(F)(F)F)cc3)CC2)C1 (stereo not drawn) | 2000 to 5000
CCOC1CC(c2ccccc2)OC2(CCN(C(=O)c3cccnc3N(C)C)CC2)C1 (stereo not drawn) | > 5000

SMILES | IC50 [nM]
CCOC1CC(c2ccccc2)OC2(CCN(C(=O)c3ccc(N4CCOCC4)c(C)c3)CC2)C1 (stereo not drawn) | < 2000
CCOC1CC(c2ccccc2)OC2(CCN(C(=O)c3ccc(OCC(F)(F)F)cc3)CC2)C1 (stereo not drawn) | < 2000
CCOC1CC(c2ccccc2)OC2(CCN(C(=O)c3nccc4ccccc34)CC2)C1 (stereo not drawn) | 2000 to 5000
CCOC1CC(c2ccc(F)cc2)OC2(CCN(C(=O)c3ccc(S(=O)(=O)C(C)C)c(C#N)c3)CC2)C1 (stereo not drawn) | > 5000
CCOC1CC(c2ccccc2)OC2(CCN(C(=O)c3cc4ccccc4o3)CC2)C1 (stereo not drawn) | 2000 to 5000
CCOC1CC(c2cccc(F)c2)OC2(CCN(C(=O)c3ccc(OC(C)C)c(OC)c3)CC2)C1 (stereo not drawn) | < 2000
CCOC1CC(c2ccccc2)OC2(CCN(C(=O)c3ccc(N4CCCC4)cn3)CC2)C1 (stereo not drawn) | < 2000
CCOC1CC(c2ccccc2)OC2(CCN(C(=O)c3ccc(N4CCOCC4)nc3)CC2)C1 (stereo not drawn) | > 5000
CCOC1CC(c2ccccc2)OC2(CCN(C(=O)c3ccc(C(F)(F)F)cn3)CC2)C1 (stereo not drawn) | 2000 to 5000
CCOC1CC(c2ccccc2)OC2(CCN(C(=O)c3cccnc3N3CCCC3)CC2)C1 (stereo not drawn) | > 5000
CCOC1CC(c2cccc(F)c2)OC2(CCN(C(=O)c3ccc(OC(C)C)c(C)c3)CC2)C1 (stereo not drawn) | < 2000
CCOC1CC(c2ccccc2)OC2(CCN(C(=O)c3cccc4nccnc34)CC2)C1 (stereo not drawn) | < 2000
CCOC1CC(c2ccccc2)OC2(CCN(C(=O)c3ccc(C(C)(O)CC)cc3)CC2)C1 (stereo not drawn) | < 2000
CCC1CC(c2cccnc2)OC2(CCN(C(=O)c3ccc(OC(C)C)c(C)c3)CC2)C1 (stereo not drawn) | < 2000
CCOC1CC(c2ccccc2)OC2(CCN(C(=O)c3ccc4ccccc4n3)CC2)C1 (stereo not drawn) | < 2000
CCCOC1CC(c2cccnc2)OC2(CCN(C(=O)c3ccc(OC(C)C)c(C)c3)CC2)C1 (stereo not drawn) | < 2000
CCOC1CC(c2ccccc2)OC2(CCN(C(=O)c3ccc(N4CCCCC4)nc3)CC2)C1 (stereo not drawn) | < 2000
CCOC1CC(c2ccccc2)OC2(CCN(C(=O)c3cccc(OC(F)F)c3)CC2)C1 (stereo not drawn) | 2000 to 5000
CCCOc1ccc(C(=O)N2CCC3(CC2)CC(OCC)CC(c2ccccc2)O3)cc1OC (stereo not drawn) | < 2000
CCOc1ncccc1C(=O)N1CCC2(CC1)CC(OCC)CC(c1ccccc1)O2 (stereo not drawn) | < 2000
CCOC1CC(c2ccccc2)OC2(CCN(C(=O)c3cccc(F)c3C)CC2)C1 (stereo not drawn) | > 5000
CCOC1CC(c2ccccc2)OC2(CCN(C(=O)c3cnc(OC(C)C)c(C)c3)CC2)C1 (stereo not drawn) | < 2000
